Experimental findings from patent US10179128B2, “Regimens for treating and preventing lysosomal disorders and degenerative disorders of the central nervous system” (Amicus Therapeutics, Inc., priority 2015, dated 2019) are described below.

Broadly, the EC50 is the concentration at which the effect is half-maximal. Low readings indicate an effect from little substance, high ones a need for much substance. Broadly, the IC50 is the midpoint of a concentration-inhibition curve. As usually defined, the Ki is a measure of affinity in units of concentration, obtained from inhibition or displacement.

Test [1] has as its target T1, GCase N370S (Homo sapiens, UniProt P04062, N409S).
T1 sequence (P04062 40-536 N409S): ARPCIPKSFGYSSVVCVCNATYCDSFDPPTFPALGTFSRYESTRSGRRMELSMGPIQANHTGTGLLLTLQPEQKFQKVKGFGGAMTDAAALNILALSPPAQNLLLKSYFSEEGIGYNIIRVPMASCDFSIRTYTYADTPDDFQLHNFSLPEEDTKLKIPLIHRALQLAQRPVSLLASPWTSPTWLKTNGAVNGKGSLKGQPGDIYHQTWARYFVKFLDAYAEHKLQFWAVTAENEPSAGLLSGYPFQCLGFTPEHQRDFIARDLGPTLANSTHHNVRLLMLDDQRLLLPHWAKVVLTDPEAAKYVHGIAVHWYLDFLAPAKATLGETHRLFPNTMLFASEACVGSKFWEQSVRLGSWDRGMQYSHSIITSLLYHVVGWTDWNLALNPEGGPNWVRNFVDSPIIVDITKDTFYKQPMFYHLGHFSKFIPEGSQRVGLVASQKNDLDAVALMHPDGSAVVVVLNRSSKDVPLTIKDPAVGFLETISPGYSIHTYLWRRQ
Nature of the test: cell-based.

The target in test [2] is T2, rhGCase L444P (Homo sapiens, UniProt P04062, L483P).
T2 sequence (P04062 40-536 L483P): T1 sequence (P04062 40-536 N409S) with S370N, L444P
In words: biochemical. As to conditions: purified recombinant enzyme mutant.

For test [3], the target named is T3, rhGCase Wild-type (Homo sapiens, UniProt P04062).
T3 sequence (P04062 40-536): T1 sequence (P04062 40-536 N409S) with S370N
In words: biochemical. The conditions noted are these: purified recombinant enzyme.

Test [4] concerns the target T4, GCase (Homo sapiens, UniProt P04062).
T4 sequence (P04062 40-536): T1 sequence (P04062 40-536 N409S) with S370N
Nature of the test: biochemical.

The target in test [5] is T1, GCase N370S. The conditions noted are these: read-out: IC50, rhGCase N370S; purified recombinant enzyme mutant.
The target in test [6] is T1, GCase N370S. Nature of the test: biochemical.

Substitutions are numbered along the chain they refer to. Read-outs that look alike come from different tables or passages of the source.

Turning to `O[C@H]1[C@H](O)CNC[C@@H]1C(F)F` [Compound 1], in test [1], the EC50 turned out to be 18 nM. For the same compound, the IC50 in test [2] (IC50, rhGCase L444P) was determined as 46 nM; in test [3] (IC50, rhGCase Wild-type) it was 36 nM; in test [5] it was 556 nM. For the same compound, the Ki stood at 14 nM in test [4] (Ki pH 5.2, pH 5.2) and 3 nM in test [4] (Ki pH 7, pH 7).

As to `O=C(O)/C=C/C(=O)O.O[C@H]1[C@H](O)CNC[C@@H]1C(F)F` [Compound 3], the IC50 is approximately 50 nM in test [2] (IC50, L444P enzyme mutant, in the 50 nM range); approximately 50 nM in test [3] (IC50, wild-type enzyme, in the 50 nM range); 556 nM in test [6].
